Experimental data published in patent publication US7399785B2, “N-oxides and derivatives of melphalan for treating diseased states associated with hypoxia inducible factor” (dated 2008).
Where two headings read alike, the source gives them in different places.

Key:
HIF-1α protein [1] = test: HIF-1α protein in nuclear extracts by Western blotting
[2] = system: HT-29 human colon carcinoma cells; test: MTT growth inhibition assay, HT-29; details: for IC50: read-out: IC50 growth inhibition, 16 h drug, MTT at 72 h
HIF-1α mRNA = HIF-1α mRNA measurement (Northern); details: any of the cell lines (data not shown)
VEGF = VEGF ELISA in cell lysates and medium; details: for IC50: 16 h
HIF-1β = HIF-1β protein in nuclear extracts by Western blotting; details: any of the cell lines, 16 h normoxia or hypoxia
HIF-1α protein [3] = test: HIF-1α immunohistochemistry in MCF-7 xenografts in scid mice; details: 100 mg/kg, 4 h after treatment
[4] = system: MCF-7 human breast cancer cells; test: MTT growth inhibition assay, MCF-7; details: for IC50: read-out: IC50 growth inhibition, 16 h drug, MTT at 72 h
HIF-1 transactivation = test: Hypoxia response element luciferase reporter assay (HIF-1 transactivation)
thioredoxin reductase = test: Thioredoxin reductase activity in lysates of treated cells; details: 10 μM PX-478, 16 h
[5] = MCF-7 and HT-29 (either cell line), normoxia

## N[C@@H](Cc1ccc([N+]([O-])(CCCl)CCCl)cc1)C(=O)O
HIF-1α protein [1]; MCF-7, hypoxia, 25 μM PX-478
  time for HIF-1α protein to return to pre-treatment levels after removal of the drug: up to 4 h
HIF-1α protein [1]; read-out: IC50 inhibition of HIF-1α protein, PC-3 cells, hypoxic conditions
  IC50: 2.1 µM
HIF-1α protein [1]; read-out: IC50 inhibition of HIF-1α protein, PC-3 cells, normoxia
  IC50: 2.5 µM
HIF-1α protein [1]; read-out: IC50 inhibition of HIF-1α protein, RCC4 cells (lacking VHL), hypoxia, 16 h
  IC50: 16.9 µM
HIF-1α protein [1]; read-out: IC50 inhibition of HIF-1α protein, RCC4 cells (lacking VHL), normoxia, 16 h
  IC50: 5.1 µM
HIF-1α protein [1]; read-out: IC50 inhibition of hypoxia-induced HIF-1α protein, HT-29, hypoxia (1% oxygen), 16 h
  IC50: 17.8 µM
HIF-1α protein [1]; read-out: IC50 inhibition of hypoxia-induced HIF-1α protein, MCF-7, hypoxia (1% oxygen), 16 h
  IC50: 3.5 µM
HIF-1α protein [1]; read-out: IC50 inhibition of hypoxia-induced HIF-1α protein, RCC4/VHL cells, hypoxia, 16 h
  IC50: 18.1 µM
[2]; HT-29 cells
  ratio of growth inhibition under hypoxia to that in normoxia: 1.20
[2]; HT-29, hypoxia (1% oxygen)
  IC50: 23.9 µM
[2]; HT-29, normoxia (20% oxygen)
  IC50: 29.5 µM
HIF-1α mRNA
  effect on HIF-1α mRNA levels: No effect
VEGF; MCF-7, hypoxia, 10 μM PX-478
  levels of VEGF secreted into the medium after treatment: decreased to normoxic levels
VEGF; [5]
  effect on VEGF levels in normoxia: did not affect VEGF levels in normoxia
VEGF; read-out: IC50 for VEGF in cell lysates, HT-29, hypoxia
  IC50: 13.5 µM
VEGF; read-out: IC50 for VEGF in cell lysates, MCF-7, hypoxia
  IC50: 17.1 µM
VEGF; read-out: IC50 for VEGF secreted into the medium, HT-29, hypoxia
  IC50: 11.5 µM
VEGF; read-out: IC50 for VEGF secreted into the medium, MCF-7, hypoxia
  IC50: 3.8 µM
HIF-1β
  effect on HIF-1β levels: No effect
HIF-1α protein [3]
  levels of HIF-1α (staining intensity) compared to untreated controls: 50%
[4]; MCF-7 cells
  ratio of growth inhibition under hypoxia to that in normoxia: 1.25
[4]; MCF-7, hypoxia (1% oxygen)
  IC50: 20 µM
[4]; MCF-7, normoxia (20% oxygen)
  IC50: 25.1 µM
HIF-1 transactivation; [5]
  effect on HIF-1 transactivation under normoxia: not affected
HIF-1 transactivation; RCC4/VHL cells, normoxia
  effect on HIF-1 transactivation in normoxia: did not affect transactivation in normoxia
HIF-1 transactivation; read-out: IC50 inhibition of HIF-1 transactivation, RCC4 cells, hypoxia
  IC50: 10.1 µM
HIF-1 transactivation; read-out: IC50 inhibition of HIF-1 transactivation, RCC4 cells, normoxia
  IC50: 12.5 µM
HIF-1 transactivation; read-out: IC50 inhibition of hypoxia-induced HIF-1 transactivation, HT-29, hypoxia (1% oxygen), 16 h
  IC50: 23.1 µM
HIF-1 transactivation; read-out: IC50 inhibition of hypoxia-induced HIF-1 transactivation, MCF-7, hypoxia (1% oxygen), 16 h
  IC50: 20.5 µM
HIF-1 transactivation; read-out: IC50 inhibition of hypoxia-induced HIF-1 transactivation, RCC4/VHL cells, hypoxia
  IC50: 13.5 µM
Thioredoxin reductase; hypoxic conditions
  thioredoxin reductase activity after treatment: below the limit of detection
Thioredoxin reductase; normoxia, MCF-7 cells (so in the source)
  decrease of thioredoxin reductase activity: 40%
